Test results: patent US6420120B1, “Use of a polypeptide as cell receptor for adenoviruses” (priority 1997, dated 2002)

System: HeLa cells
Experiment: Cytotoxicity of the peptides on HeLa cells
Format: cell-based, human
Experimental: The peptides FN20 and MH20 are tested with respect to the attachment of the reporter adenovirus Ad5Luc3 to HeLa cells cultured in vitro. The test is carried out in part at 0° C., a temperature which allows the attachment of the viruses to the surface of the permissive cells but, on the other hand, blocks the entry of the viruses and the recycling of the receptors. Ad5Luc3 (MOI 0.16 pfu/10^5 cells) is previously incubated with increasing quantities of peptides (0.01 to 500 nM) at room temperature for 2 hours and the mixture is then added to a cell culture placed on ice. After 1 h at 0° C., the nonadsorbed viruses and the peptides are removed by washing and the culture is continued for 18 h at 37° C. after adding a preheated medium. The cellular lysates are prepared in a conventional manner and the luciferase activity expressed in RLU (for Relative Light Units) is determined (Promega substrate, Madison, Wis.; Lumat LB-9501 luminometer, Brethold Bioanalytical, Wildbad, Germany).

With `CC[C@H](C)[C@H](NC(=O)[C@H](Cc1c[nH]cn1)NC(=O)[C@@H](N)CCCNC(=N)N)C(=O)N[C@@H](CC(C)C)C(=O)N[C@@H](Cc1c[nH]c2ccccc12)C(=O)N[C@H](C(=O)N1CCC[C@H]1C(=O)N[C@@H](C)C(=O)N[C@@H](CC(N)=O)C(=O)N[C@H](C(=O)N1CCC[C@H]1C(=O)N[C@@H](C)C(=O)N[C@@H](CCSC)C(=O)NCC(=O)N[C@@H](Cc1ccc(O)cc1)C(=O)N[C@@H](CC(C)C)C(=O)N[C@@H](C)C(=O)N[C@@H](CCCNC(=N)N)C(=O)N[C@H](C(=O)N[C@@H](CO)C(=O)O)C(C)C)[C@@H](C)O)[C@@H](C)O` [FN20] the cytotoxicity was “no apparent cytotoxicity”.
With `CC[C@H](C)[C@H](NC(=O)[C@H](C)NC(=O)[C@@H](N)CCCNC(=N)N)C(=O)N[C@H](C(=O)NCC(=O)N[C@@H](Cc1ccccc1)C(=O)N[C@@H](CCCNC(=N)N)C(=O)N[C@H](C(=O)N[C@@H](CCC(N)=O)C(=O)N[C@@H](Cc1c[nH]c2ccccc12)C(=O)N[C@@H](CC(C)C)C(=O)N[C@@H](CCCNC(=N)N)C(=O)N[C@@H](CCCNC(=N)N)C(=O)N[C@@H](Cc1ccc(O)cc1)C(=O)N[C@@H](Cc1ccccc1)C(=O)N[C@H](C(=O)N[C@@H](CC(N)=O)C(=O)NCC(=O)N[C@@H](CO)C(=O)N[C@@H](CCCNC(=N)N)C(=O)O)C(C)C)C(C)C)C(C)C` [MH20] the cytotoxic effect (50 μM peptide) was “no cytotoxic effect”.
